Here are results for 22 compounds from PubChem BioAssay AID2216 (Broad Institute, 2009).

The list shows a part of the results, in another mix than the full data. Some of these compounds have results that are not shown, active ones among them. Records with an inconclusive call do not appear. Activity calls are given as the source filed them.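 Rule for the calls: active = more than half of the replicate wells show a fall in the fluorescence ratio signal beyond about 16% (limit read from the data, passing the limit was not always enough); inconclusive = exactly half of the replicate wells pass the set limit; inactive = fewer than half of replicates pass the limit.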

The assay relates to Ran GTPase (GTP-bound) - importin-beta complex. Description: disruptors of Ran-importin-beta complex formation – biochemical, FRET, CFP-Ran, YFP-importin-beta, homogeneous, primary screen (AID 2216).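 Note: 0% = DMSO wells and 100% = Ran loaded with GDP instead of GTP.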 To be noted: cell-free CFP-Ran/YFP-importin-beta FRET ratio; stronger effect = higher value; concentration not given here.
Consider `O=C(NCC1(N2CCCCC2)CCCCC1)c1cc(F)c(F)cc1Cl`, for which the inhibition (in general, the change of the read-out against control, counted positive when it falls) was inactive: -0.18%.

On to `CCN1CCCC(OC(=O)C2(O)c3ccccc3C=Cc3ccccc32)C1` (configuration not stated), for which the inhibition is inactive: 5.69%.

As for `Cc1cc(C(=O)NCC2(N3CCCCC3)CCCCC2)ccc1[N+](=O)[O-]`, the inhibition was inactive: 1.77%.

Consider `O=C(NCC1(N2CCCCC2)CCCCC1)c1cccc(Br)c1`, for which the inhibition was inactive: 4.71%.

As to `Cc1ccccc1C(=O)NCC1(N2CCCCC2)CCCCC1`, the inhibition was inactive: 0.667%.

As for `CN(C)c1ccc(C(=O)NCC2(N(C)C)CCCCC2)cc1`, the inhibition is inactive: 1.74%.

For `CN(C)C1CCCC1OC(=O)C(O)(c1ccccc1)c1ccccc1` (configuration not stated), the inhibition was inactive: 6.11%.

On to `CC(C)N1C(=O)CC2(CCN(CCOC(=O)C(O)(c3ccccc3)c3ccccc3)CC2)C1=O`, for which the inhibition was inactive: 3.81%.

On to `CCN(CC)CC(C)C(C)OC(=O)C(O)(c1ccccc1)c1ccccc1` (configuration not stated), for which the inhibition is inactive: -0.635%.

Take `COc1cc(SC)ccc1C(=O)NCC1(N(C)C)CCCCC1`: the inhibition was inactive: 5.33%.

Turning to `Cc1ccc(C(=O)NCC2(N3CCCCC3)CCCCC2)cc1`, the inhibition was inactive: 7.58%.

Turning to `O=C(NCC1(N2CCCCC2)CCCCC1)c1cc([N+](=O)[O-])ccc1Cl`, the inhibition was inactive: 1.19%.

Take `CN1[C@@H]2CC[C@H]1CC(OC(=O)C(O)(c1ccccc1)c1ccccc1)C2` (some centres not stated): the inhibition is inactive: 6.77%.

For `COc1ccc(Br)c(C(=O)NCC2(N3CCCCC3)CCCCC2)c1`, the inhibition is inactive: 7.26%.

On to `CN(C)c1cccc(C(=O)NCC2(N(C)C)CCCCC2)c1`, for which the inhibition was inactive: 3.01%.

Consider `CC(C)Oc1ccc(C(=O)NCC2(N(C)C)CCCCC2)cc1`, for which the inhibition is inactive: 2.95%.

Regarding `O=C(OC1CN2CCC1CC2)C(CO)(c1ccccc1)c1ccccc1` (configuration not stated), the inhibition was inactive: 2.83%.

In the case of `COc1cccc(C(=O)NCC2(N3CCCCC3)CCCCC2)c1`, the inhibition was inactive: -1.04%.

With `COc1ccc(Cl)cc1C(=O)NCC1(N(C)C)CCCCC1`, the inhibition is inactive: 3.81%.

As for `O=C(NCC1(N2CCCCC2)CCCCC1)c1cccc(Cl)c1`, the inhibition was inactive: 1.68%.

Take `CN(C)C1(CNC(=O)c2ccc(Br)cc2)CCCCC1`: the inhibition is inactive: 2.08%.

Consider `COc1cc(C(=O)NCC2(N(C)C)CCCCC2)c([N+](=O)[O-])cc1OC`, for which the inhibition was inactive: 2.92%.
